Data: publication PMC4434464 (ACS Medicinal Chemistry Letters, 2015)

Sequences of proteins named here, by UniProt entry; tags and fusion partners are left off.
UniProt Q15910, whole entry: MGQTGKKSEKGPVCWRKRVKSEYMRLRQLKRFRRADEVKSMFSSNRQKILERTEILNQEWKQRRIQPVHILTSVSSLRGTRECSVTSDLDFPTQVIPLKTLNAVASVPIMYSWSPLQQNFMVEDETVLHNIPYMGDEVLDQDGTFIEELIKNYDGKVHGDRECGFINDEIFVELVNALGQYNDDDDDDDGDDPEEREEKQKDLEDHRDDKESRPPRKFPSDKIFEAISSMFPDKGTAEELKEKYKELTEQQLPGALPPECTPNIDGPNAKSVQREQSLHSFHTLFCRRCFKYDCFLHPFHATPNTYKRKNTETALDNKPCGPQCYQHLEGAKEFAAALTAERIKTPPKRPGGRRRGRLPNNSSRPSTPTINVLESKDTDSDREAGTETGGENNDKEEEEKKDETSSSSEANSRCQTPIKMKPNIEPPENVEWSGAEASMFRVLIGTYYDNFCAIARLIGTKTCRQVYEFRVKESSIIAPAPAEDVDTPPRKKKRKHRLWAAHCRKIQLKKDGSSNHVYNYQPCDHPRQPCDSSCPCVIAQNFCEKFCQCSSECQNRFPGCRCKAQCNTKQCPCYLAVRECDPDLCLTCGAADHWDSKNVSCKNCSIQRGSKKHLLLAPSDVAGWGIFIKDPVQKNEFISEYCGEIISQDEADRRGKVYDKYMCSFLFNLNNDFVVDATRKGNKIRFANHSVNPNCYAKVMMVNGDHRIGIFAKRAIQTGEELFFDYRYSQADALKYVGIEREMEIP
UniProt Q15910, whole entry Y641F: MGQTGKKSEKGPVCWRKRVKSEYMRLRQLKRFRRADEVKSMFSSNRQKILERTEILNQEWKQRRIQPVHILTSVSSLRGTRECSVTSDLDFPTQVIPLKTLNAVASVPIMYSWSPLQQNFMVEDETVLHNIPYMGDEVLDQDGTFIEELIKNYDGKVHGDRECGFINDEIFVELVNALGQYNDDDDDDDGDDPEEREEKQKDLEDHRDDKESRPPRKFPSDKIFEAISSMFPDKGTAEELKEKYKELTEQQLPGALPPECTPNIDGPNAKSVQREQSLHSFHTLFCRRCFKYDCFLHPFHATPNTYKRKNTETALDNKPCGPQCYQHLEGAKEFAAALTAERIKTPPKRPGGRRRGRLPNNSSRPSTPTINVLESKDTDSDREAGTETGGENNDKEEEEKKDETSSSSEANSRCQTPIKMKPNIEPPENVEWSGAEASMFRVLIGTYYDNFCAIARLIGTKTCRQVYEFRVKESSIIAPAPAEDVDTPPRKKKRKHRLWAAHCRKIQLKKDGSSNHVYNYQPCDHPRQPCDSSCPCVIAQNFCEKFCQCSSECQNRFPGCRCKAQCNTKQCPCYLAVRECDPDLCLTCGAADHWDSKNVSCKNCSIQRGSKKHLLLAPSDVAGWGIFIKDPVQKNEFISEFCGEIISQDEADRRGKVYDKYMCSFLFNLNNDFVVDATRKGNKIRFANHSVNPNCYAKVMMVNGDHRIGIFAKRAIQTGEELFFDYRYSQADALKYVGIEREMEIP

Assays:
EZH2 (WT) = EZH2 (WT) (Homo sapiens, UniProt Q15910); experiment: EZH2 biochemical Ki
EZH2 (Y646) = EZH2 (Y646) (Homo sapiens, UniProt Q15910, Y641F); experiment: EZH2 biochemical Ki

Compound: CCN(c1cc(C#CCN2CCOCC2)cc(C(=O)NCc2c(C)cc(C)[nH]c2=O)c1C)[C@H]1CC[C@H](N(C)CCOC)CC1 [EPZ011989, N-((4,6-Dimethyl-2-oxo-1,2-dihydropyridin-3-yl)methyl)-3-(ethyl((trans)-4-((2-methoxyethyl)(methyl)amino)cyclohexyl)amino)-2-methyl-5-(3-morpholinoprop-1-yn-1-yl)benzamide]
- Ki (EZH2 (WT)): < 3 nM
- Ki (EZH2 (Y646)): < 3 nM
